Measured values published in PubChem BioAssay AID847 (SRMLSC, 2007).
This is a selection; strong and weak results do not stand in their true shares. Active and inactive are the calls of the source.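 The calls were made as follows: active = viability at or below the median of all test compounds minus 3 SD, in both replicates if run twice (cut at about 45% in these data); inconclusive = duplicate replicates that disagree with each other; inactive = viability above that cutoff in every replicate.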

Experiment: viability loss of SK-BR-3 cells – cell-based, human, 24 h, primary screen (AID 847);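 also: 100% = median untreated cell wells and 0% = median positive control drug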
Conditions: SK-BR-3 viability, CellTiter-Glo ATP luminescence, at 10 µM, active compounds read low

SMILES | viability
O=C(OC1CN2CCC1CC2)C1c2ccccc2Oc2ccccc21 (stereo not given) | inactive: 88.5%
N#CC1(Nc2ccccc2)CCN(CCc2ccccc2)CC1 | inactive: 86.3%
N/C(=N\O)c1c(N)no[n+]1[O-] | inactive: 87.7%
CCC(CO)(C(=O)OC1CN2CCC1CC2)c1ccccc1 (stereo not given) | inactive: 85.7%
Fc1ccccc1NC1CCN(Cc2ccccc2)CC1 | inactive: 76.6%
